Results reported in patent US5700779A (Cortech, Inc., priority 1996, dated 1997).
Where two headings read alike, the source gives them in different places.

Sequences of proteins named here, by UniProt entry; tags and fusion partners are left off.
UniProt P25023, whole entry: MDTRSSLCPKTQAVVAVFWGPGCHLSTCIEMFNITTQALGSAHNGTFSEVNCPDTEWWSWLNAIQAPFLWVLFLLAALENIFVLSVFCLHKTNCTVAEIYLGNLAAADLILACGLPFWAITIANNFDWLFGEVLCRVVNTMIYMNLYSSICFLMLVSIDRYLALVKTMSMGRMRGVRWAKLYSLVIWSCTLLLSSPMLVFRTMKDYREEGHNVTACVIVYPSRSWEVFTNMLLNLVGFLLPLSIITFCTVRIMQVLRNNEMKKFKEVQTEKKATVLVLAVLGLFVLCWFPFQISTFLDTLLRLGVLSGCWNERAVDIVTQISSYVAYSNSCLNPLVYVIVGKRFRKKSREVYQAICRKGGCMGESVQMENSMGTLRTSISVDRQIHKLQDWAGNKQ
UniProt O70526, whole entry: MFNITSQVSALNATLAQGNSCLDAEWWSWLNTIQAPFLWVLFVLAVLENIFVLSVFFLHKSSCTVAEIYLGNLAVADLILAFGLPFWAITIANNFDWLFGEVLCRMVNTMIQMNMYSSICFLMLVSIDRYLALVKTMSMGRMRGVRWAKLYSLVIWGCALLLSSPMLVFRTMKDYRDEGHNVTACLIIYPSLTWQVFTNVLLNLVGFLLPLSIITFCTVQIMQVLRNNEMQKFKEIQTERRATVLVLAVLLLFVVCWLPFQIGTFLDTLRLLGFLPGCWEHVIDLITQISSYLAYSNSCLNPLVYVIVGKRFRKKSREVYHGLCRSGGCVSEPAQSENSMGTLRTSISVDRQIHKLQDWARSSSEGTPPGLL

Experiments:
[1] = target: T1, bradykinin type 1 (BK1) receptors (Oryctolagus cuniculus, UniProt P48748); assay: rabbit aorta in vitro B1 antagonist activity; conditions: reversal of des-Arg9-bradykinin contraction of rabbit aorta strips
T1 construct: Spiral strips were mounted under 2 g resting tension in 5 mL tissue baths; from tissue; host or cells: rabbit thoracic aorta spiral strips (New Zealand White)
T1 sequence (P48748 1-352): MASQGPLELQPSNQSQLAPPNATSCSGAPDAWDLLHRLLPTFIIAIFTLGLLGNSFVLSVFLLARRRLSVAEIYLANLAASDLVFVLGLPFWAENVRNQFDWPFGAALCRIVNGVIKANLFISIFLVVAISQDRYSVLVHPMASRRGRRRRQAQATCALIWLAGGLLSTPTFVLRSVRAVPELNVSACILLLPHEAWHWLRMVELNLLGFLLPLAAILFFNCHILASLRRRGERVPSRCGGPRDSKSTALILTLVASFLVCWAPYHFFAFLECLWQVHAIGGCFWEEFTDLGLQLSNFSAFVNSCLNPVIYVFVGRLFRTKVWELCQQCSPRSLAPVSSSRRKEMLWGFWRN
Protocol: Female New Zealand White rabbits were killed by overdose of pentobarbital (80 mg/kg i.v.) and the thoracic aorta removed. Spiral strips were mounted under 2 g resting tension in 5 mL tissue baths containing Krebs solution (118.3 mM NaCl, 4.7 mM KCl, 2.5 mM CaCl2, 1.2 mM MgSO4 1.2 mM KH2 PO4, 25 mM NaHCO3, 25 mM glucose, and 2.8 μM indomethacin) and aerated with 95% O2 /5% CO2. Two concentration-effect curves for des-Arg^9 -bradykinin were constructed at 1 and 3 hours. At five hours des-Arg^9 -bradykinin was added to the bath to a final concentration of […]. This produced stable, sustained and prolonged contractions of up to 45 minutes.

[2] = battery of plasma and tissue preparations (stability towards protease enzyme activity); type: in vitro ADME; conditions: plasma, kidney and lung preparations of Table 2
Protocol: Membrane preparations were stored at -20° C.
The stability assays summarized in Table 2 represent in vitro tests. The actual stability of an individual compound in plasma or kidney or lung tissue in a living animal may vary. However, the in vitro assay provides a reproducible method for comparison of many compounds without sacrificing large numbers of animals for in vivo experimentation. Thus, this battery of plasma and tissue preparations allows a very broad screening for stability of peptides towards protease enzyme activity likely to be encountered by a peptide drug.

[3] = target: T2, bradykinin type 2 (BK2) receptors (Rattus norvegicus, UniProt P25023); conditions: antagonist preincubated for 15 minutes
T2 construct: Uterine horns were removed, placed under a 1 g resting tension in 4 mL tissue baths; from tissue; host or cells: rat uterine horns (Sprague-Dawley, stilbesterol-pretreated)
Protocol: The standard rat uterus pA2 assay was conducted as follows:
Female Sprague-Dawley rats (200-250 g) were pretreated with stilbesterol (100 μg/kg) and killed 18 hours later by a blow on the head and exsanguinated. Uterine horns were removed, placed under a 1 g resting tension in 4 mL tissue baths containing De Jalon's solution at 31° C. and aerated. […] Antagonist potency was calculated according to the method of Arunlakshana and Schild (Arunlakshana, O., Schild, H. O., Br. J. Pharmacology 14 48-58 (1959)). […] The difference in pD2 values compared to concurrent control reflected the "percentage recovery" of agonist response.

[4] = target: T3, bradykinin type 2 (BK2) receptors (Cavia porcellus, UniProt O70526); assay: antagonist binding to guinea pig ileum (tritium labeled bradykinin); conditions: read-out: B2 binding (G.P.I.); guinea pig ileum membranes
T3 construct: from tissue; host or cells: guinea pig ileum membrane preparation (Hartley strain)
Protocol: Radioactivity was determined by liquid scintillation counting.

[5] = system: blood pressure responses to vasoactive agents; assay: selectivity of intravenous CP-0597, rabbit blood pressure; type: in vivo; conditions: 0.1 μg/kg/min
Text: Male New Zealand White rabbits were anesthetized with pentobarbital and femoral arteries were cannulated for the recording of blood pressure. Cannulae were placed in the femoral veins for the bolus injection or continuous infusion of compounds. […] Following an equilibration period the specific experimental procedure was started.

Substance: D-Arg-Arg-Pro-Hyp-Gly-Thi-Ser-D-Cpg-NChg-Arg [Compound 10]
- B1 (Rabbit Aorta) [1]: 5.34

Substance: D-Arg-Arg-Pro-Hyp-Gly-Thi-Ser-D-NBng-NChg-Arg [Compound 7]
- B1 (Rabbit Aorta) [1]: < 5

Substance: D-Arg-Arg-Pro-Hyp-Gly-Thi-Ser-D-NBng-Oic-Arg [Compound 6]
- B1 (Rabbit Aorta) [1]: < 5

Substance: D-Arg-Arg-Pro-Hyp-Gly-Thi-Ser-D-Phe-NChg-Arg [Compound 9]
- B1 (Rabbit Aorta) [1]: 5.52

Substance: D-Arg-Arg-Pro-Hyp-Gly-Thi-Ser-D-Tic-NChg-Arg [Compound 5]
- B1 (Rabbit Aorta) [1]: < 5
- half-life in all of these tests [2]: greater than six hours
- B2 pA2 (Rat Uterus) [3]: 9.5 ± 0.05
- B2 pA2 (Rat Uterus) ([3]; listed as CP-0597, 15 min): 9.5
- Ki [4]: 1.3 pM
- Selectivity (i.v. infusion) [5]: BK2 block only

Substance: D-Arg-Arg-Pro-Hyp-Gly-Thi-Ser-D-Tic-NCpg-Arg [Compound 8]
- B1 (Rabbit Aorta) [1]: < 5

Substance: D-Arg-Arg-Pro-Hyp-Gly-Thi-Ser-D-Tic-NMch-Arg [Compound 12]
- B1 (Rabbit Aorta) [1]: < 5

Substance: D-Arg-Arg-Pro-Hyp-Gly-Thi-Ser-D-Tic-Oic-Arg [HOE-140, reference compound]
- B2 pA2 (Rat Uterus) [3]: 10.3
- Ki [4]: 1.4 pM

Substance: D-Arg-Arg-Pro-Hyp-Gly-Thi-Ser-Igl*-NChg-Arg [Compound 3]
- B1 (Rabbit Aorta) [1]: < 5
- B2 pA2 (Rat Uterus) ([3]; 15 min): 6.41 ± 0.49

Substance: D-Arg-Arg-Pro-Hyp-Gly-Thi-Ser-NPeg-Oic-Arg [Compound 11]
- B1 (Rabbit Aorta) [1]: < 5
